Measured values from patent publication US20200323849A1, “COMBINATIONS OF HISTONE DEACETYLASE INHIBITORS AND IMMUNOMODULATORY DRUGS” (Acetylon Pharmaceuticals, Inc., priority 2013, published 2020).

Biological target: T1, HDAC6 (Homo sapiens, UniProt Q9UBN7)
T1 construct: purchased BPS Biosciences
T1 sequence (Q9UBN7 1-1215): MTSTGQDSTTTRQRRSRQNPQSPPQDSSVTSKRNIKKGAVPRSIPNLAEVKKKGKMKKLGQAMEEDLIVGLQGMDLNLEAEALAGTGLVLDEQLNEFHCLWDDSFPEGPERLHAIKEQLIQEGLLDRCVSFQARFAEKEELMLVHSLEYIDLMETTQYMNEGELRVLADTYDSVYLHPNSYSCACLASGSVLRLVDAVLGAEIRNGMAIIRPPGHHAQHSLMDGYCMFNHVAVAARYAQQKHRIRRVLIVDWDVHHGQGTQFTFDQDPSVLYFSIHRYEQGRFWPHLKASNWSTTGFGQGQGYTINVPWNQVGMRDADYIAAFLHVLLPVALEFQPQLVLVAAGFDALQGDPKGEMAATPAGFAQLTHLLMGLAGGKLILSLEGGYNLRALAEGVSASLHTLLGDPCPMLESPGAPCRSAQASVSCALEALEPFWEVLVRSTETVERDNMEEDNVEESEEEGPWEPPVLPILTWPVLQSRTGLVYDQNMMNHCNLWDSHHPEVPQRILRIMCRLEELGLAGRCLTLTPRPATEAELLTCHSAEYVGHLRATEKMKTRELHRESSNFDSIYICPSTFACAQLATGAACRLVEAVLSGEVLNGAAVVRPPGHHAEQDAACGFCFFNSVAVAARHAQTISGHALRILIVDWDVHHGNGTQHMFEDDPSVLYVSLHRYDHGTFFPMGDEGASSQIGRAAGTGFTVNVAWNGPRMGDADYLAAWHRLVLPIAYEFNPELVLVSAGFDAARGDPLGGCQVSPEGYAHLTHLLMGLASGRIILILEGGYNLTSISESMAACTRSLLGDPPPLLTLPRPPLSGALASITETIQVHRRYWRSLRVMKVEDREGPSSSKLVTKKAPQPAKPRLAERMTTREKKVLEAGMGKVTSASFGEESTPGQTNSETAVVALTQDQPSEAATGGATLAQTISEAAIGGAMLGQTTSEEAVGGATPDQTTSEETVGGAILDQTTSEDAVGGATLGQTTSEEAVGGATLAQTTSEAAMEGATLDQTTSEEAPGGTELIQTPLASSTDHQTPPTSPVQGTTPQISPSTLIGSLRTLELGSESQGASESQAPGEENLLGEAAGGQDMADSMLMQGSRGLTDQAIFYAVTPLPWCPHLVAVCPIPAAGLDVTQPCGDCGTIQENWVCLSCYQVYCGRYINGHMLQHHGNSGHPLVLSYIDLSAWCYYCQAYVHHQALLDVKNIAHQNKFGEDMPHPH
Experiment: HDAC enzyme assays (HDAC6 selectivity)
Type: biochemical
Procedure: Compounds for testing were diluted in DMSO to 50 fold the final concentration and a ten point three fold dilution series was made. The compounds were diluted in assay buffer (50 mM HEPES, pH 7.4, 100 mM KCl, 0.001% Tween-20, 0.05% BSA, 20 μM TCEP) to 6 fold their final concentration. The HDAC enzymes (purchased from BPS Biosciences) were diluted to 1.5 fold their final concentration in assay buffer. The tripeptide substrate and trypsin at 0.05 μM final concentration were diluted in assay buffer at 6 fold their final concentration. The final enzyme concentrations used in these assays were 3.3 ng/ml (HDAC1), 0.2 ng/ml (HDAC2), 0.08 ng/ml (HDAC3) and 2 ng/ml (HDAC6). The final substrate concentrations used were 16 μM (HDAC1), 10 μM (HDAC2), 17 μM (HDAC3) and 14 μM (HDAC6). Five μl of compound and 20 μl of enzyme were added to wells of a black, opaque 384 well plate in duplicate. Enzyme and compound were incubated together at room temperature for 10 minutes. Five μl of substrate was added to each well, the plate was shaken for 60 seconds and placed into a Victor 2 microtiter plate reader. The development of fluorescence was monitored for 60 min and the linear rate of the reaction was calculated. The IC50 was determined using Graph Pad Prism by a four parameter curve fit.

O=C(CCCCCCNC(=O)c1cnc(N(c2ccccc2)c2ccccc2)nc1)NO [Compound A, 2-(diphenylamino)-N-(7-(hydroxyamino)-7-oxoheptyl) pyrimidine-5-carboxamide]
selective for HDAC6: 11 fold
